Reference: patent US11590089B2, “Beta-2 selective adrenergic receptor agonists” (The Board of Trustees of the Leland Stanford Junior …, priority 2017, dated 2023)
Structures can show the parent of a compound that is named as a salt.

Biological target: β2-AR (Homo sapiens, UniProt P07550)
Test: radioligand binding assay, β2-AR, [3H]CGP12177
Conditions: in words, refers to Table 1 and 2
Procedure: The binding affinities of exemplary compounds of interest at β1AR and β2AR were evaluated in a binding assay.

Row | Structure (SMILES) | selectivity for β2-AR over β1-AR
1 | CN[C@@H]1CCc2c(ccc(O)c2O)[C@H]1O [AS443, (5R,6R)-6-(methylamino)-5,6,7,8-tetrahydronaphthalene-1,2,5-triol] | high selectivity
2 | N[C@@H]1CCc2c(ccc(O)c2O)[C@H]1O [AS446, (5R,6R)-6-amino-5,6,7,8-tetrahydronaphthalene-1,2,5-triol×TFA] | high selectivity
